Earlier results in patent publication US20170333404A1, “IMPROVED FORMULATIONS OF VEMURAFENIB AND METHODS OF MAKING THE SAME” (DISPERSOL TECHNOLOGIES, LLC, priority 2014, published 2017).

Tested on: BRAFV600E/K mutant advanced or malignant melanoma
Conditions: MEKi class effect

For `CC(=O)Nc1cccc(-n2c(=O)n(C3CC3)c(=O)c3c(Nc4ccc(I)cc4F)n(C)c(=O)c(C)c32)c1` [Trametinib], the chorioretinopathy is given as less than 1% and the decreased ejection fraction is given as 7%.
